From ChEMBL document CHEMBL1127339, “Tetrapeptide CCK agonists: structure-activity studies on modifications at the N-terminus” (J Med Chem, 1994)

Assay: Maximum response at 10e-4 M in PI hydrolysis relative to maximal response elicited by CCK-8 in guinea pig
Details: Cavia porcellus

Max response: 99%
SMILES: Cc1ccccc1NC(=O)NCCCC[C@H](NC(=O)[C@H](Cc1c[nH]c2ccccc12)NC(=O)C(F)(F)F)C(=O)N[C@@H](CC(=O)O)C(=O)N(C)[C@@H](Cc1ccccc1)C(N)=O
